Source: patent publication US11339183B2, “Phosphate and phosphonate derivatives of 7-amino-5-thio-thiazolo[4,5-d]pyrimidines and their use in treating conditions associated with elevated levels of CX3CR1 and/or CX3CL1” (KANCERA AB, priority 2018, dated 2022)

Experiment: Further stability studies: aqueous solutions stored 60 days at room temperature and/or 40° C. (HPLC-MS)
Format: physicochemical
Conditions: aqueous solution 1.2 mg/mL, 1d, 1n with Na2HPO3, 1q, 4f, 4g with DMSO and (2-hydroxypropyl)-β-cyclodextrin
Description: Aqueous solutions of several of the example compounds were prepared at concentrations of 1.2 mg/mL (10 mg/mL for Example 1 (no salt)) according to the following procedures. • i) Examples 1 b, 2h and 3 (diammonium salts) were dissolved in pure water. • ii) Examples 1d (diammonium salt) and 1n (monoammonium salt) were suspended in water and Na2HPO3 was added until all of the compound was in solution. • iii) Examples 1q, 4f an 4g (no salts) were dissolved in water with added DMSO (100 μL) and (2-hydroxypropyl)-β-cyclodextrin was added until all of the compound was in solution.
The stability of the compounds to long-term storage in aqueous solution at room temperature and/or 40° C. was then assessed by analysis of the solution by HPLC-MS after 60 days.

Row | Compound | % Area by HPLC (60 days) (40° C.) [% Area] | % Area by HPLC (60 days) (room temperature) [% Area]
1 | CCOP(=O)(Nc1nc2nc(S[C@@H](C)c3ccccc3)nc(N[C@@H](CO)CC(C)C)c2s1)OCC | 82.1 | 95.7
2 | COP(=O)(Nc1nc2nc(S[C@@H](C)c3ccccc3)nc(N[C@@H](CO)CC(C)C)c2s1)OC | 45.1 | 91.6
